The text below walks through data of ChEMBL document CHEMBL4184302, “Virtual target screening reveals rosmarinic acid and salvianolic acid A inhibiting metallo- and serine-β-lactamases” (Bioorg Med Chem Lett, 2018).

Molecules are shown by their SMILES.

The test system of this test is Bacteria. In words: Competitive inhibition of bacterial N-terminal His6-tagged VIM2 (27 to 266 residues) expressed in Escherichia coli BL21 DE3 pLysS cells assessed as substrate Vmax using varying levels of FC-5 as substrate by fluorescence assay.

As to `O=C(/C=C/c1ccc(O)c(O)c1)O[C@H](Cc1ccc(O)c(O)c1)C(=O)O` [ROSMARINIC ACID], the Vmax – broadly, the rate approached at saturating substrate – is 4.59 µM/min.
